Measured values: paper PMC3438169

Biological target: argyrin B (Actinoplanes sp. 86317)
Test: ITC; 44 uM EF-G1 injected into the cell with 2.5 uM argyrin B; 25°C; 50 mM Tris-HCl pH 7.6, 10 mM MgCl2, 1 mM TCEP, 10 mM NH4Cl, 100 uM GDP, 2% DMSO; one binding site model

P. aeruginosa elongation factor G1 (EF-G1, encoded by fusA1), his-tagged (from UniProt Q9HWD2 1-706) (natural protein)
stoichiometry N: 1
